The results in this text go back to patent US5270302A, “Derivatives of tetrapeptides as CCK agonists” (priority 1991, dated 1993).

Sequences of proteins named here, by UniProt entry; tags and fusion partners are left off.
UniProt Q63931, whole entry: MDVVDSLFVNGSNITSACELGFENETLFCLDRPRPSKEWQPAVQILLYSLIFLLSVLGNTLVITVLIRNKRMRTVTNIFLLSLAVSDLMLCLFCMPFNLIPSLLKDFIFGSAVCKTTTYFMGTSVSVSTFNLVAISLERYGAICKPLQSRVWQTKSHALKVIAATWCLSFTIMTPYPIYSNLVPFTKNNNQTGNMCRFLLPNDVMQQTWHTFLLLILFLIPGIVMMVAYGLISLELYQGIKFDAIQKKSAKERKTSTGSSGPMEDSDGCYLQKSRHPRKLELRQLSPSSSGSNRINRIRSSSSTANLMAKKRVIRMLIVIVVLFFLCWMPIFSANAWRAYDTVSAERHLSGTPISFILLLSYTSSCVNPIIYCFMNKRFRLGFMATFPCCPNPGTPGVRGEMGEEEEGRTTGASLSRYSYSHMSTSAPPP

The target in one assay is T1, Type-B CCK receptor (Cavia porcellus, UniProt H0VZC5).
T1 construct: Cortical and pancreatic membranes were prepared as described; from tissue; host or cells: guinea pig cerebral cortex membranes
T1 sequence (H0VZC5 1-426): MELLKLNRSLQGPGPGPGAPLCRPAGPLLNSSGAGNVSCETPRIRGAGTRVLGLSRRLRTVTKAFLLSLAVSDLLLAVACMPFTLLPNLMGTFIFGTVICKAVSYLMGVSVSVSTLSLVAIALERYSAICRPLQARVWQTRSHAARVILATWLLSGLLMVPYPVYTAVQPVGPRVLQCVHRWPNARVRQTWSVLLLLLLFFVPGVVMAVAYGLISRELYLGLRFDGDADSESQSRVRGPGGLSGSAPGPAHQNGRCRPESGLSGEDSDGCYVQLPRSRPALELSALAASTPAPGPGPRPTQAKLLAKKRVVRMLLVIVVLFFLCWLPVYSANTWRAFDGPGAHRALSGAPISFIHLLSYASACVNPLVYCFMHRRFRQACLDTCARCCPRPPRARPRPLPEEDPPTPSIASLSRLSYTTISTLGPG
As to the kind of experiment: Radioligand binding of [125I]BH-CCK-8 in guinea pig cerebral cortical membrane preparations. The settings on record: IC50 (nM) 125I-BH-CCK-8 Type-B receptor, guinea pig cortical membranes, 30° C., 150 minutes. The text has this: (§1) CCK-8 [Asp-Tyr(SO3 H)-Met-Gly-Trp-Met-Asp-PheNH2 ], bestatin and phosphoramidion were purchased from Peptide International (Louisville, Ky.). EGTA (ethylene glycol-bis-(β-aminoethyl) N,N,N',N'-tetraacetic acid), HEPES (4-(2-hydroxyethyl)-1-piperazine-enthanesulfonic acid) and BSA (bovine serum albumin) were purchased from Sigma Chemical Co. (St. Louis, Mo.). [^125 I]-Bolton-Hunteer (BH-CCK-8) (specific activity, 2200 Ci/mmol) was obtained from New England Nuclear (Boston, Mass.). Male guinea pigs, 250 to 325 g, were obtained from Scientific Small Animal Laboratory and Farm (Arlington Heights, Ill.). Collagenase, code CLSPA was purchased from Worthington (Frehold, N.J.).
(§2) Protocol For Radioligand Binding Experiments in Guinea Pig Cerebral Cortical and Pancreatic Membrane Preparations
Cortical and pancreatic membranes were prepared as described (Lin and Miller; J. Pharmacol. Exp. Ther. 1985, 232:775-780,). In brief, cortex and pancreas were removed and rinsed with ice-cold saline. Visible fat and connective tissues were removed from the pancreas. […] The homogenates were entrifuged for 10 minutes at 1075×g and pellets were discarded. The supernatants were saved and centrifuged at 38,730×g for 20 minutes. The resultant pellets were rehomogenized in 25 mL of 50 mM Tris-HCl buffer with a Teflon-glass homogenizer, 5 up and down strokes. The homogenates were centrifuged again at 38,730×g for 20 minutes. Pellets werre then resuspended in 20 mM HEPES, containing 1 mM EGTA, 118 mM NaCl, 4.7 mM KCl, 5 mM MgCl2, 100 μM bestatin, 3 μM phosphoramidon, pH 7.4 at 22° C. with a Teflon-glass homogenizer, 15 up and down strokes. Resuspension volume for the cortex was 15-18 mL per gram of original wet weight and 60 mL per gram for the pancreas.
[^125 I]Bolton-Hunter CCK-8 and test compounds were diluted with HEPES-EGTA-salt buffer (see above) containing 0.5% BSA. To 1 mL Skatron polystyrene tubes were added 25 μL of test compounds, 25 μL of [^125 I]BH-CCK-8 and 200 μL of membrane suspension. The final BSA concentration was 0.1%. […] IC50 s were determined from the Hill analysis.

The next assay addresses T2, Type-A CCK receptor (Cavia porcellus, UniProt Q63931).
T2 construct: Cortical and pancreatic membranes were prepared as described; from tissue; host or cells: guinea pig pancreas membranes
As to the kind of experiment: Radioligand binding of [125I]BH-CCK-8 in guinea pig pancreatic membrane preparations. As to conditions: IC50 (nM) 125I-BH-CCK-8 Type-A receptor, guinea pig pancreatic membranes, 37° C., 150 min.
Excerpt: as §1, §2
Cortical and pancreatic membranes were prepared as described (Lin and Miller; J. Pharmacol. Exp. Ther. 1985, 232:775-780,). In brief, cortex and pancreas were removed and rinsed with ice-cold saline. Visible fat and connective tissues were removed from the pancreas. […] The homogenates were entrifuged for 10 minutes at 1075×g and pellets were discarded. The supernatants were saved and centrifuged at 38,730×g for 20 minutes. […]
[^125 I]Bolton-Hunter CCK-8 and test compounds were diluted with HEPES-EGTA-salt buffer (see above) containing 0.5% BSA. […] IC50 s were determined from the Hill analysis.

Take `Cc1ccccc1NC(=O)NCCCC[C@H](NC(=O)[C@H](Cc1c[nH]c2ccccc12)NC(=O)OC(C)(C)C)C(=O)N[C@@H](CC(=O)O)C(=O)N(C)[C@@H](Cc1ccccc1)C(N)=O` [Example 33, t-BOC-Trp-Lys(ε-N-(2-methylphenyl)aminocarbonyl)-Asp-(NMe)PheNH2]: the concentration for half-maximal inhibition (IC50) – broadly, the midpoint of a concentration-inhibition curve – at Type-B CCK receptor came to 4300 nM.
On to `Cc1ccccc1NC(=O)NCCCC[C@H](NC(=O)C(Cc1c[nH]c2ccccc12)OC(=O)OCC(C)C)C(=O)N[C@@H](CC(=O)O)C(=O)N[C@@H](Cc1ccccc1)C(N)=O` (some centres unmarked) [Example 50, (Isobutoxycarbonyl)indolelactoyl-Lys(ε-N-(2-methylphenyl)aminocarbonyl)-Asp-PheNH2], for which the values for the IC50 on Type-A CCK receptor and at Type-B CCK receptor were 15 nM and 5200 nM, respectively.
As for `Cc1ccccc1NC(=O)NCCCC[C@H](NC(=O)C(O)Cc1c[nH]c2ccccc12)C(=O)N[C@@H](CC(=O)O)C(=O)N[C@@H](Cc1ccccc1)C(N)=O` (some centres unmarked) [Example 51, Indolelactoyl-Lys(ε-N-(2-methylphenyl)aminocarbonyl)-Asp-PheNH2], the values for the IC50 on Type-A CCK receptor and on Type-B CCK receptor were 28 nM and 2100 nM, respectively.
